{
  "sequences": {"note": "Protein sequences, listed by entry. Tags and fused reporters are not part of them. Residues count along the entry.", "UniProt P00748, 20-372 limits assumed": "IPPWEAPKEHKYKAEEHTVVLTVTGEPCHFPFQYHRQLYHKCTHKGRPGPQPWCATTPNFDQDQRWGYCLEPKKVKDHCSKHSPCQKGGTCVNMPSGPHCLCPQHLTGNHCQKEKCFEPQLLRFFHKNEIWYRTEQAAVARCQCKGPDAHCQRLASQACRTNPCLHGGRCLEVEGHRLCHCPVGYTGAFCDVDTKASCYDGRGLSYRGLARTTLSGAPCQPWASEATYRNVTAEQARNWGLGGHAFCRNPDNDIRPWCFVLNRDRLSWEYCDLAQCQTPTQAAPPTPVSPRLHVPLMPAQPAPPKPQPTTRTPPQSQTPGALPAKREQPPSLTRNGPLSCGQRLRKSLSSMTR", "UniProt P00748, 373-615 limits assumed": "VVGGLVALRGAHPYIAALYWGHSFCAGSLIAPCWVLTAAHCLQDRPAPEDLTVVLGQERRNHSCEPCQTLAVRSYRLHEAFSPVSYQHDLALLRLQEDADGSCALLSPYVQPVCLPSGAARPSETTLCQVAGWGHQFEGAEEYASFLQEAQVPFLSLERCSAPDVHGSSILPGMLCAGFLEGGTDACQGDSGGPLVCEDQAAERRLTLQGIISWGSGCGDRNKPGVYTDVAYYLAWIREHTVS"},
  "source": "PubChem BioAssay AID684",
  "about": "(PCMD, 2007)",
  "note": "The entries are a selection whose mix differs from that of the whole data set. Activity calls are given as the source filed them. No stated cut-off is given here; in the data, active means inhibition above about 20% (passing the limit was not always enough); inactive means the rest.",
  "data": [
    {"molecular_target": "Coagulation factor XII (Homo sapiens) (UniProt P00748)", "experiment": "blockers of FXIIa protease activity – biochemical, pooled compound mixtures, fluorogenic substrate, primary screen (AID 684);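 further: 0% = enzyme without compound and 100% = no enzyme blank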", "conditions": "purified FXIIa, at 5 µM, stronger effect = higher value", "values": [
      {"smiles": "Fc1ccccc1NC1CCN(Cc2ccccc2)CC1", "inhibition": "inactive: 0.43%"},
      {"smiles": "CCC(CO)(C(=O)OC1CN2CCC1CC2)c1ccccc1", "note": "(stereo unspecified)", "inhibition": "inactive: 23.9%"},
      {"smiles": "CCOc1ncccc1C(=O)NCC1(N2CCOCC2)CCCCC1", "inhibition": "inactive: 8.2%"},
      {"smiles": "N/C(=N\\O)c1c(N)no[n+]1[O-]", "inhibition": "inactive: 3.82%"},
      {"smiles": "N#CC1(Nc2ccccc2)CCN(CCc2ccccc2)CC1", "inhibition": "inactive: 5.58%"},
      {"smiles": "O=C(OC1CN2CCC1CC2)C1c2ccccc2Oc2ccccc21", "note": "(stereo unspecified)", "inhibition": "inactive: 3.21%"}
    ]}
  ]
}
